# In patent US20190092802A1, “ANTAGONISTS OF NK1 RECEPTORS DERIVED FROM CARBOHYDRATES, PRODUCTION METHOD AND MEDICAL USE” (CONSEJO SUPERIOR DE INVESTIGACIONES CIENTIFICAS (CSIC), priority 2015, published 2019):
# Chains of the proteins cited; added tags and fusions are not shown.
# UniProt P25103, whole entry, species assumed: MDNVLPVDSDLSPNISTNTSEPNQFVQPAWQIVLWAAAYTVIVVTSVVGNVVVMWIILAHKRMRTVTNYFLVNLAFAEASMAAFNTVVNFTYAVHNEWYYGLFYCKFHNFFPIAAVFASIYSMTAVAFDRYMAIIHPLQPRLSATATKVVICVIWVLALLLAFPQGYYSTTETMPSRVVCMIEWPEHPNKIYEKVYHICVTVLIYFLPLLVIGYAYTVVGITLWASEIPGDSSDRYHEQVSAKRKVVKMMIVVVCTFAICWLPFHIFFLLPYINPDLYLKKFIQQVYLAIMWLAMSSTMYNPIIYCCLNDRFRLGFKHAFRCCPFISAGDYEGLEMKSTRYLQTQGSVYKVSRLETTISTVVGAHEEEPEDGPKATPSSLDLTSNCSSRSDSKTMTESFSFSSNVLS
# Biological target: NK1 receptor (Homo sapiens, UniProt P25103)
# Experiment: IP-One assay (SP-induced IP1 accumulation in CHO cells transfected with NK1)
# Type: cell-based
# Design: expressed in transfected cells; host or cells: CHO cells, transient electroporation
# Details: SP as positive control (agonist)
substance,measurement,value
substance P [SP],Kact,1.64E−08±0.62 M
